# Patent US20080118553A1, “Tannate salt form of polypeptide mixtures, their preparation and use” (priority 2006, published 2008)
# “Also recorded” adds a separate entry of the source.
# Experiments:
# [1] = Degradation in simulated gastric fluid (SGF), size exclusion chromatography RRT; type: in vitro ADME; details: for RRT (relative retention time) in SGF: 37.5°C, GA about 1.5 mg/ml, GT 5 mg/ml
# Protocol: Simulated gastric fluid (SGF) with desired proteolytic activity was prepared based on USP procedure. 2.0 g of sodium chloride and 3.2 g of purified pepsin derived from porcine stomach mucosa, with an activity of 800 to 2500 units per mg of protein, was dissolved in 7.0 mL of hydrochloric acid and sufficient water to make 1000 mL. This test solution has a pH of about 1.2.
# SGF was heated to 37.5±0.5° C. At time zero, Glatiramer acetate (GA) solution and Glatiramer tannate (GT) suspension were each added to separate samples of SGF to attain final concentration of about 1.5 mg/ml and 5 mg/ml respectively (molar equivalent amounts of glatiramer). The reactions were sampled at pre-determined intervals. When removing samples, the reaction was terminated in each sample using NaOH solution. The retention time (RT) of the glatiramer peak of each sample was analyzed using size exclusion chromatography. A higher glatiramer RT indicates reduction in molecular weight, which is indicative of degradation. The Relative Retention time (RRT) was calculated for each sample as (RT of Glatiramer/RT of acetone) and the results were shown in Table 2.
# [2] = Degradation in simulated intestinal fluid (SIF), size exclusion chromatography RRT; type: in vitro ADME; details: for RRT (relative retention time) in SIF: 37.5°C, GA about 1.5 mg/ml, GT 5 mg/ml
# Protocol: Simulated intestinal fluid (SIF) with desired proteolytic activity was prepared based on USP procedure. 6.8 g of monobasic potassium phosphate was dissolved in 250 mL of water by mixing. 77 mL of 0.2 N sodium hydroxide and 500 mL of water were added. 10.0 g of pancreatin were added, and the solution was mixed. The pH of the resulting solution was adjusted with either 0.2 N sodium hydroxide of 0.2 N hydrochloric acid to a pH of 6.8±0.1. The solution was diluted with water to 1000 mL.
# SIF was heated to 37.5±0.5° C. At time zero, Glatiramer acetate (GA) solution and Glatiramer tannate (GT) suspension were each added to separate samples of SIF to attain final concentration of about 1.5 mg/ml and 5 mg/ml respectively. The reactions were performed while continuously stirring. The reactions were sampled at chosen intervals. The reaction was terminated in each sample using concentrated HCl. The retention time (RT) of the glatiramer peak of each sample was analyzed using size exclusion chromatography. A higher glatiramer RT is indicative of greater degradation. The Relative Retention time (RRT) was calculated for each sample as (RT of Glatiramer/RT of acetone) and the results were shown in Table 3.
# [3] = time 0 min, higher RRT = degradation
substance,measurement,setting,value
"L-glutamic acid polymer with L-alanine, L-lysine and L-tyrosine, acetate (salt) [GA]",RRT (relative retention time) in SGF,[1]; [3],0.69
same,RRT (relative retention time) in SGF,[1]; time 2 min,0.75
same,RRT (relative retention time) in SGF,[1]; time 5 min,0.76
same,RRT (relative retention time) in SGF,[1]; time 10 min,0.77
same,RRT (relative retention time) in SGF,[1]; time 20 min,0.78
same,RRT (relative retention time) in SGF,[1]; time 30 min,0.78
same,degradation in simulated gastric fluid (in words),[1]; up to 30 min,similar
same,RRT (relative retention time) in SIF,[2]; [3],0.68
same,RRT (relative retention time) in SIF,[2]; time 2 min,No peak
same,RRT (relative retention time) in SIF,[2]; time 5 min,No peak
same,RRT (relative retention time) in SIF,[2]; time 10 min,No peak
same,RRT (relative retention time) in SIF,[2]; time 20 min,No peak
same,RRT (relative retention time) in SIF,[2]; time 30 min,No peak
same,degradation in simulated intestinal fluid (in words),[2]; up to 30 min,rapidly degrades; also recorded: immediately degraded
